The target in experiment [1] is T1, human GLP-1 receptor (Homo sapiens, UniProt P43220).
T1 construct: expressed in transfected cells; host or cells: HEK-293
In words: cAMP response (HTRF) of HEK-293 cells stably expressing human GLP-1 receptor. The class given is cell-based. The conditions noted are these: Table 5; cAMP, HEK-293; read-out: EC50 hGLP-1R.

Amino acid sequences for entries named in this document (tags omitted). Residues count along the entry.
UniProt P43220, 24-463: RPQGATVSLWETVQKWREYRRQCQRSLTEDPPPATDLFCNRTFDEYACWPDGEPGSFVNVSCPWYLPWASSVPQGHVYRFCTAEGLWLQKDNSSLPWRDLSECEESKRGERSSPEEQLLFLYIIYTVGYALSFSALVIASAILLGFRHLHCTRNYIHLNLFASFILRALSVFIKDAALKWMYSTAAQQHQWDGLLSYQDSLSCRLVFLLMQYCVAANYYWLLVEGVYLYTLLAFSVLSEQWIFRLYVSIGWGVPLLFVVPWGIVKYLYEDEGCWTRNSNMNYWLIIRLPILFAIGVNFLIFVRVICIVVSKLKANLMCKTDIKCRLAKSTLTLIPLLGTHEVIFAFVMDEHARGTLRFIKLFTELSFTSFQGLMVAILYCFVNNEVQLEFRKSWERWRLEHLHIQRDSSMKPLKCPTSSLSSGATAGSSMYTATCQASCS
UniProt P47871, 26-477: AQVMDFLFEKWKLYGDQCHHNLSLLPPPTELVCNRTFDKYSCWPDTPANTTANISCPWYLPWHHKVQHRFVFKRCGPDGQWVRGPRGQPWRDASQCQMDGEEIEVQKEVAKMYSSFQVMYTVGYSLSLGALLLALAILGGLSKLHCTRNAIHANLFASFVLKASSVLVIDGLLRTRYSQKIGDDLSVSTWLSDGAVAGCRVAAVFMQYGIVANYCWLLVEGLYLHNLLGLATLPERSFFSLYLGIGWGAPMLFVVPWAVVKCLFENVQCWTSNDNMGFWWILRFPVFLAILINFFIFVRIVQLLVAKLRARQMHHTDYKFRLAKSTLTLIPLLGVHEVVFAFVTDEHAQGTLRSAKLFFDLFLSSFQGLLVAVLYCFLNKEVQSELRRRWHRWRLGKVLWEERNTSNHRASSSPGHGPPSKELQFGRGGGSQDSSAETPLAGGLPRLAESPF

Experiment [2] has as its target T2, human glucagon receptor (Homo sapiens, UniProt P47871).
T2 construct: expressed in transfected cells; host or cells: HEK-293
The experiment in a line: cAMP response (HTRF) of HEK-293 cells stably expressing human glucagon receptor. The class given is cell-based. The conditions noted are these: Table 5; cAMP, HEK-293; read-out: EC50 hGlucagon-R.

SMILES strings stand for the structures.

For `CCCCCCCCCCCCCCCC(=O)N[C@@H](CCC(=O)NCCCC[C@H](NC(=O)[C@H](CCC(N)=O)NC(=O)[C@H](CCCCN)NC(=O)[C@H](CO)NC(=O)[C@H](CC(C)C)NC(=O)[C@H](CC(=O)O)NC(=O)[C@H](CO)NC(=O)[C@@H](NC(=O)[C@H](Cc1ccccc1)NC(=O)[C@@H](NC(=O)CNC(=O)[C@H](CCC(N)=O)NC(=O)[C@@H](CO)NC(=O)[C@@H](N)Cc1c[nH]cn1)[C@@H](C)O)[C@@H](C)O)C(=O)N[C@@H](CC(=O)O)C(=O)N[C@@H](CO)C(=O)N[C@@H](CCCNC(=N)N)C(=O)N[C@@H](CCCNC(=N)N)C(=O)N[C@@H](C)C(=O)N[C@@H](CCC(N)=O)C(=O)N[C@@H](CC(=O)O)C(=O)N[C@@H](Cc1ccccc1)C(=O)N[C@H](C(=O)N[C@@H](CCC(=O)O)C(=O)N[C@@H](Cc1c[nH]c2ccccc12)C(=O)N[C@@H](CC(C)C)C(=O)N[C@@H](CCCCN)C(=O)N[C@@H](CC(N)=O)C(=O)NCC(=O)NCC(=O)N1CCC[C@H]1C(=O)N[C@@H](CO)C(=O)N[C@@H](CO)C(=O)NCC(=O)N[C@@H](C)C(=O)N1CCC[C@H]1C(=O)N1CCC[C@H]1C(=O)N1CCC[C@H]1C(=O)N[C@@H](CO)C(=O)NCCOCCOCCOCCOCCC(=O)O)[C@@H](C)CC)C(=O)O` [compound 104], the results for the EC50 in experiment [1] and in experiment [2] were 6.5 pM and 1.1 pM, respectively.
For `CCCCCCCCCCCCCCCC(=O)N[C@@H](CCC(=O)NCCCC[C@H](NC(=O)[C@H](CCC(N)=O)NC(=O)[C@H](CCCCN)NC(=O)[C@H](CO)NC(=O)[C@H](CC(C)C)NC(=O)[C@H](CC(=O)O)NC(=O)[C@H](CO)NC(=O)[C@@H](NC(=O)[C@H](Cc1ccccc1)NC(=O)[C@@H](NC(=O)CNC(=O)[C@H](CCC(N)=O)NC(=O)C(C)(C)NC(=O)[C@@H](N)Cc1c[nH]cn1)[C@@H](C)O)[C@@H](C)O)C(=O)N[C@@H](CC(=O)O)C(=O)N[C@@H](CO)C(=O)N[C@@H](CCCCN)C(=O)N[C@@H](C)C(=O)N[C@@H](C)C(=O)N[C@@H](CCC(N)=O)C(=O)N[C@@H](CC(=O)O)C(=O)N[C@@H](Cc1ccccc1)C(=O)N[C@H](C(=O)N[C@@H](CCC(=O)O)C(=O)N[C@@H](Cc1c[nH]c2ccccc12)C(=O)N[C@@H](CC(C)C)C(=O)N[C@@H](CCCCN)C(=O)N[C@@H](C)C(=O)NCC(=O)NCC(=O)N1CCC[C@H]1C(=O)N[C@@H](CO)C(=O)N[C@@H](CO)C(=O)NCC(=O)N[C@@H](C)C(=O)N1CCC[C@H]1C(=O)N1CCC[C@H]1C(=O)N1CCC[C@H]1C(=O)N[C@@H](CO)C(N)=O)[C@@H](C)CC)C(=O)O` [compound 31], in that order: 1.7 pM and 9.3 pM.
For `CCCCCCCCCCCCCCCCCC(=O)N[C@@H](CCC(=O)NCCCC[C@H](NC(=O)[C@H](CCC(N)=O)NC(=O)[C@H](CCCCN)NC(=O)[C@H](CO)NC(=O)[C@H](CC(C)C)NC(=O)[C@H](CC(=O)O)NC(=O)[C@H](CO)NC(=O)[C@@H](NC(=O)[C@H](Cc1ccccc1)NC(=O)[C@@H](NC(=O)CNC(=O)[C@H](CCC(N)=O)NC(=O)[C@@H](CO)NC(=O)[C@@H](N)Cc1c[nH]cn1)[C@@H](C)O)[C@@H](C)O)C(=O)N[C@@H](CC(=O)O)C(=O)N[C@@H](CO)C(=O)N[C@@H](CCCCN)C(=O)N[C@@H](CCCNC(=N)N)C(=O)N[C@@H](C)C(=O)NC(C)(C)C(=O)N[C@@H](CC(=O)O)C(=O)N[C@@H](Cc1ccccc1)C(=O)N[C@H](C(=O)N[C@@H](CCC(=O)O)C(=O)N[C@@H](Cc1c[nH]c2ccccc12)C(=O)N[C@@H](CC(C)C)C(=O)N[C@@H](CCCCN)C(=O)N[C@@H](C)C(=O)NCC(=O)NCC(=O)N1CCC[C@H]1C(=O)N[C@@H](CO)C(=O)N[C@@H](CO)C(=O)NCC(=O)N[C@@H](C)C(=O)N1CCC[C@H]1C(=O)N1CCC[C@H]1C(=O)N1CCC[C@H]1C(=O)N[C@@H](CO)C(N)=O)[C@@H](C)CC)C(=O)O` [compound 196], in that order: 7.8 pM and 1.8 pM.
For `CCCCCCCCCCCCCCCC(=O)N[C@@H](CCC(=O)NCCCC[C@H](NC(=O)[C@H](CCC(N)=O)NC(=O)[C@H](CCCCN)NC(=O)[C@H](CO)NC(=O)[C@H](CC(C)C)NC(=O)[C@H](CC(=O)O)NC(=O)[C@H](CO)NC(=O)[C@@H](NC(=O)[C@H](Cc1ccccc1)NC(=O)[C@@H](NC(=O)CNC(=O)[C@H](CCC(N)=O)NC(=O)[C@@H](CO)NC(=O)[C@@H](N)Cc1c[nH]cn1)[C@@H](C)O)[C@@H](C)O)C(=O)N[C@@H](CCC(=O)O)C(=O)N[C@@H](CO)C(=O)NC(C)(C)C(=O)N[C@@H](C)C(=O)N[C@@H](C)C(=O)N[C@@H](CCC(N)=O)C(=O)N[C@@H](CC(=O)O)C(=O)N[C@@H](Cc1ccccc1)C(=O)N[C@H](C(=O)N[C@@H](CCC(=O)O)C(=O)N[C@@H](Cc1c[nH]c2ccccc12)C(=O)N[C@@H](CC(C)C)C(=O)N[C@@H](CCCCN)C(=O)N[C@@H](C)C(=O)NCC(=O)NCC(=O)N1CCC[C@H]1C(=O)N[C@@H](CO)C(=O)N[C@@H](CO)C(=O)NCC(=O)N[C@@H](C)C(=O)N1CCC[C@H]1C(=O)N1CCC[C@H]1C(=O)N1CCC[C@H]1C(=O)N[C@@H](CO)C(N)=O)[C@@H](C)CC)C(=O)O` [compound 14], in that order: 4.6 pM and 94.7 pM.
Consider `CCCCCCCCCCCCCCCC(=O)N[C@@H](CCC(=O)NCCCC[C@H](NC(=O)[C@H](CCC(N)=O)NC(=O)[C@H](CCCCN)NC(=O)[C@H](CO)NC(=O)[C@H](CC(C)C)NC(=O)[C@H](CC(=O)O)NC(=O)[C@H](CO)NC(=O)[C@@H](NC(=O)[C@H](Cc1ccccc1)NC(=O)[C@@H](NC(=O)CNC(=O)[C@H](CCC(N)=O)NC(=O)[C@@H](CO)NC(=O)[C@@H](N)Cc1c[nH]cn1)[C@@H](C)O)[C@@H](C)O)C(=O)N[C@@H](CC(=O)O)C(=O)N[C@@H](CO)C(=O)N[C@@H](CCCNC(=N)N)C(=O)N[C@@H](CCCNC(=N)N)C(=O)N[C@@H](C)C(=O)N[C@@H](CCC(N)=O)C(=O)N[C@@H](CC(=O)O)C(=O)N[C@@H](Cc1ccccc1)C(=O)N[C@H](C(=O)N[C@@H](CCC(=O)O)C(=O)N[C@@H](Cc1c[nH]c2ccccc12)C(=O)N[C@@H](CC(C)C)C(=O)N[C@@H](CCCCN)C(=O)N[C@@H](CC(N)=O)C(=O)NCC(=O)NCC(=O)N1CCC[C@H]1C(=O)N[C@@H](CO)C(=O)N[C@@H](CO)C(=O)NCC(=O)N[C@@H](C)C(=O)N1CCC[C@H]1C(=O)N1CCC[C@H]1C(=O)N1CCC[C@H]1C(=O)N[C@@H](CO)C(=O)NCCCCCCCCCCCCO)[C@@H](C)CC)C(=O)O` [compound 107], for which the values for the EC50 in experiment [1] and in experiment [2] were 188 pM and 37.8 pM, respectively.
For `CCCCCCCCCCCCCCCCCC(=O)N[C@@H](CCC(=O)NCCCC[C@H](NC(=O)[C@H](CCC(N)=O)NC(=O)[C@H](CCCCN)NC(=O)[C@H](CO)NC(=O)[C@H](CC(C)C)NC(=O)[C@H](CC(=O)O)NC(=O)[C@H](CO)NC(=O)[C@@H](NC(=O)[C@H](Cc1ccccc1)NC(=O)[C@@H](NC(=O)CNC(=O)[C@H](CCC(N)=O)NC(=O)C(C)(C)NC(=O)[C@@H](N)Cc1c[nH]cn1)[C@@H](C)O)[C@@H](C)O)C(=O)N[C@@H](CC(=O)O)C(=O)N[C@@H](CO)C(=O)N[C@@H](CCCNC(=N)N)C(=O)N[C@@H](CCCNC(=N)N)C(=O)N[C@@H](C)C(=O)N[C@@H](CCC(N)=O)C(=O)N[C@@H](CC(=O)O)C(=O)N[C@@H](Cc1ccccc1)C(=O)N[C@H](C(=O)N[C@@H](CCC(=O)O)C(=O)N[C@@H](Cc1c[nH]c2ccccc12)C(=O)N[C@@H](CC(C)C)C(=O)N[C@@H](CCCCN)C(=O)N[C@@H](C)C(=O)NCC(=O)NCC(=O)N1CCC[C@H]1C(=O)N[C@@H](CO)C(=O)N[C@@H](CO)C(=O)NCC(=O)N[C@@H](C)C(=O)N1CCC[C@H]1C(=O)N1CCC[C@H]1C(=O)N1CCC[C@H]1C(=O)N[C@@H](CO)C(N)=O)[C@@H](C)CC)C(=O)O` [compound 162] the same measures were 3.1 pM and 2.4 pM.
For `CCCCCCCCCCCCCCCC(=O)N[C@@H](CCC(=O)NCCCC[C@H](NC(=O)[C@H](CCC(N)=O)NC(=O)[C@H](CCCCN)NC(=O)[C@H](CO)NC(=O)[C@H](CC(C)C)NC(=O)[C@H](CC(=O)O)NC(=O)[C@H](CO)NC(=O)[C@@H](NC(=O)[C@H](Cc1ccccc1)NC(=O)[C@@H](NC(=O)CNC(=O)[C@H](CCC(N)=O)NC(=O)[C@@H](CO)NC(=O)[C@@H](N)Cc1c[nH]cn1)[C@@H](C)O)[C@@H](C)O)C(=O)N[C@@H](CC(=O)O)C(=O)N[C@@H](CO)C(=O)N[C@@H](CCCNC(=N)N)C(=O)N[C@@H](CCCNC(=N)N)C(=O)N[C@@H](C)C(=O)N[C@@H](CCC(N)=O)C(=O)N[C@@H](CC(=O)O)C(=O)N[C@@H](Cc1ccccc1)C(=O)N[C@H](C(=O)N[C@@H](CCC(=O)O)C(=O)N[C@@H](Cc1c[nH]c2ccccc12)C(=O)N[C@@H](CC(C)C)C(=O)N[C@@H](CCCCN)C(=O)N[C@@H](CC(N)=O)C(=O)NCC(=O)NCC(=O)N1CCC[C@H]1C(=O)N[C@@H](CO)C(=O)N[C@@H](CO)C(=O)NCC(=O)N[C@@H](C)C(=O)N1CCC[C@H]1C(=O)N1CCC[C@H]1C(=O)N1CCC[C@H]1C(=O)N[C@@H](CO)C(=O)NCCCCCCCCCCCCCC)[C@@H](C)CC)C(=O)O` [compound 110] the same measures were 213 pM and 7.2 pM.
As for `CCCCCCCCCCCCCCCC(=O)N[C@@H](CCC(=O)NCCCC[C@H](NC(=O)[C@H](CCC(N)=O)NC(=O)[C@H](CCCCN)NC(=O)[C@H](CO)NC(=O)[C@H](CC(C)C)NC(=O)[C@H](CC(=O)O)NC(=O)[C@H](CO)NC(=O)[C@@H](NC(=O)[C@H](Cc1ccccc1)NC(=O)[C@@H](NC(=O)CNC(=O)[C@H](CCC(N)=O)NC(=O)[C@@H](CO)NC(=O)[C@@H](N)Cc1c[nH]cn1)[C@@H](C)O)[C@@H](C)O)C(=O)N[C@@H](CCC(=O)O)C(=O)N[C@@H](CCC(=O)O)C(=O)N[C@@H](CCC(=O)O)C(=O)N[C@@H](C)C(=O)N[C@@H](C)C(=O)N[C@@H](CCCCN)C(=O)N[C@@H](CC(C)C)C(=O)N[C@@H](Cc1ccccc1)C(=O)N[C@H](C(=O)N[C@@H](CCC(=O)O)C(=O)N[C@@H](Cc1c[nH]c2ccccc12)C(=O)N[C@@H](CC(C)C)C(=O)N[C@@H](CCCCN)C(=O)N[C@@H](C)C(=O)NCC(=O)NCC(=O)N1CCC[C@H]1C(=O)N[C@@H](CO)C(=O)N[C@@H](CO)C(=O)NCC(=O)N[C@@H](C)C(=O)N1CCC[C@H]1C(=O)N1CCC[C@H]1C(=O)N1CCC[C@H]1C(=O)N[C@@H](CO)C(N)=O)[C@@H](C)CC)C(=O)O` [compound 19], the figures for the EC50 in experiment [1] and in experiment [2] were 1.9 pM and 104 pM, respectively.

Source of the values: patent US20140100156A1 (SANOFI, priority 2012, published 2014).
